## Apparent affinities of Ab-95 variants for a coronavirus HR2 peptide

The measurements come from Engelhart et al. 2022 (doi:10.1038/s41597-022-01779-4) through the FLAb antibody collection.

All variants were tested on one target, the spike HR2 peptide PDVDLGDISGINAS (SARS-CoV-2).

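The parent was found by panning a naive human phage display library on the peptide. Library AAYL52 holds single substitutions and randomly drawn double and triple substitutions in the CDRs. The assay is AlphaSeq: two haploid yeast populations carry antibody and antigen on their surface. Pairs that bind mate more often; barcode pairs of the diploids are counted by sequencing. A regression on co-assayed BCL2-family reference pairs converts the normalised counts of each replicate to an apparent Kd. Each pool was mated in three replicate cultures.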

Each scFv is VH, a 15-residue (Gly4Ser)3 linker, VL, as in the parent Ab-95, and differs from it in the CDRs of the light chain only.
VH: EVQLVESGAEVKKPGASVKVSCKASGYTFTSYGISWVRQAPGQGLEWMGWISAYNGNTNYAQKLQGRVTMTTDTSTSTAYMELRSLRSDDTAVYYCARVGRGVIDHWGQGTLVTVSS
VL: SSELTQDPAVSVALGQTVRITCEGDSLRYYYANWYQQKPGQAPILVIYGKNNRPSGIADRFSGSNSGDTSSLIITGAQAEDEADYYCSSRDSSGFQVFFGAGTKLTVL

Each variant is given by its three light chain CDRs, as the data file delimits them; those of the parent are EGDSLRYYYAN, GKNNRPS, SSRDSSGFQVF.
Affinities are written as log10 Kd with Kd in nM; a lower number is a better binder.
A mean of the replicates is given; it leaves out those without a signal.
An entry "ND" has no value in the source: the pair was not observed among the diploids in that replicate. This suggests poor binding but is not conclusive.

CDR-L1	CDR-L2	CDR-L3	log10 Kd, replicates	mean, log10 nM	control signals
EGDSLRCYNAN	GKVNRPS	SSRDSSGFQVF	4.76 3.78 3.19	3.91	8 of 9 (3.40)
EGHSLRYYYAN	GKNNRPN	SSQDSSGFQVF	2.65 3.83 3.11	3.19	5 of 9 (3.35)
IGDSLRYYYAN	GKNNRPS	ISRKSSGFQVF	2.32 2.90 2.72	2.65	4 of 9 (3.71)
EGDSLRYYYAN	GKTNRPS	SSSDSSGFQVK	2.90 3.98 2.47	3.12	3 of 9 (4.23)
NGDSLRYYYAN	GKNNRPS	SSYDSEGFQVF	3.31 3.21 3.13	3.22	2 of 9 (4.31)
EGDSLRYYYEN	GKNNRPS	SSRASSGFQFF	4.20 ND ND	4.20	2 of 9 (3.77)
EGDSLRYYYAN	GKNNRNS	SSRDSSMFQVF	3.38 3.41 4.35	3.71	1 of 9 (3.84)
EGDSLRYYYAN	KKNNRPS	SSRDSSGFQVF	ND ND 4.25	4.25	2 of 9 (3.79)
EGDGLRYYYAN	GKNVRPS	SSRYSSGFQVF	3.00 ND ND	3.00	5 of 9 (3.69)
NGDSLRYYYAN	GKNNRPS	SSRDSPGFQVD	2.28 2.44 ND	2.36	1 of 9 (3.62)
ELHSLRYYYAN	GKNNRPT	SSRDSSGFQVF	1.39 1.45 1.26	1.37	7 of 9 (4.00)
EGDSLRYYYAN	GGNNRPS	SSRDSSGFGVF	2.53 2.00 1.55	2.03	2 of 9 (4.03)
ELDSLRYYYAN	GKNNRPS	SSRGSSGFQVF	4.04 ND ND	4.04	3 of 9 (3.82)
FGDSLDYYYGN	GKNNRPS	SSRDSSGFQVF	ND ND 4.03	4.03	5 of 9 (4.48)
EVDSLRLYYAN	GKNPRPS	SSRDSSGFQVF	3.43 ND 3.57	3.50	4 of 9 (4.17)
EGDSLRYGYHN	GKNNRPS	SSRDHSGFQVF	2.26 2.22 1.93	2.14	1 of 9 (4.04)
EGDSLRDYYAQ	GKNNRPS	SSRDSSQFQVF	3.96 4.73 4.11	4.27	4 of 9 (3.99)
EGDSIRYGYIN	GKNNRPS	SSRDSSGFQVF	3.14 3.13 3.16	3.14	3 of 9 (4.08)
EGDSLRYYMAN	GKNNRPS	SSRVSSAFQVF	3.13 4.42 4.37	3.97	4 of 9 (3.97)
EGDSLRYYYAN	GKPNRPS	SSRDISGFQVP	ND ND ND	ND	1 of 9 (3.99)
EGDSLRYYFAD	RKNNRPS	SSRDSSGFQVF	ND ND 4.22	4.22	3 of 9 (3.76)
EGDSNRYYYAN	GKNNRPS	SGRDGSGFQVF	4.28 3.27 3.89	3.82	4 of 9 (3.75)
EGDSLKYYYAN	GHNNRPS	SERDSSGFQVF	ND ND ND	ND	1 of 9 (3.71)
IGDSLRYYYAN	GKVNRPS	SSRDSSGFQVF	4.53 4.31 ND	4.42	3 of 9 (4.35)
EGDSLRYYTAN	GKNNRPS	SSRDSSCFQVL	1.96 2.59 2.70	2.42	2 of 9 (3.90)
EGDSLRYYYAN	GKNNRPS	SSRDSSEFQNY	4.04 2.81 4.06	3.64	1 of 9 (5.08)
EGDILRYPYAN	GKNGRPS	SSRDSSGFQVF	3.15 2.75 2.50	2.80	0 of 9
EGDSLRYYYAN	GKNNRPS	SSHDSSTFQDF	3.53 3.26 4.75	3.85	5 of 9 (3.77)
EGDSLRYYPAN	GKNNRRS	SSRDSSPFQVF	3.56 3.14 4.03	3.58	2 of 9 (4.12)
EGDSLRYYYFN	GKNGRPS	SSRDRSGFQVF	4.55 ND ND	4.55	4 of 9 (3.67)
EGDSLSWYYAN	GINNRPS	SSRDSSGFQVF	3.14 3.06 3.09	3.10	4 of 9 (3.62)
EGDQLRYYFQN	GKNNRPS	SSRDSSGFQVF	3.08 2.32 3.66	3.02	3 of 9 (3.99)
EGDSLRYYYAN	GKNNRPS	SSRQINGFQVF	ND ND ND	ND	1 of 9 (2.36)
ENDSLRYYYAN	GKVNRPS	SSRDSSGFQVF	4.93 ND ND	4.93	2 of 9 (3.21)
EGDSLRYYYLN	GKNNRPS	SSRDVSGIQVF	3.64 ND ND	3.64	2 of 9 (4.10)
EGISLRYYYSN	GKNNRPS	SSRDSAGFQVF	3.40 ND 3.08	3.24	2 of 9 (3.45)
MGDSLRYYYAN	GKNNRPS	SSPDSSGFQVF	3.07 2.48 1.59	2.38	3 of 9 (3.22)
EGDSLRYYYAN	GKNWRPS	SDRASSGFQVF	ND 5.41 ND	5.41	1 of 9 (2.84)
EGDSLRYYYAN	GKNNPPM	SSRDSFGFQVF	ND ND 3.71	3.71	4 of 9 (3.97)
EGDSLRYYYAN	AKNNYPS	SSRDSSGFQVF	ND 3.58 ND	3.58	0 of 9
EGDSLRYYYAN	GKNNRMF	SSIDSSGFQVF	4.44 2.88 ND	3.66	0 of 9
VGDSLRYYYAN	GKNNRPS	SSRDGSCFQVF	2.32 2.53 1.97	2.28	4 of 9 (4.09)
EGDSLRYLYAN	GKNNRPS	SSRDWSRFQVF	2.83 2.86 2.57	2.75	4 of 9 (4.48)
EGDSLRYYYAN	AKNNRPS	SSRLSKGFQVF	4.12 3.81 ND	3.96	4 of 9 (4.72)
EGDSFTYYYAN	GKNKRPS	SSRDSSGFQVF	2.83 3.98 2.75	3.19	2 of 9 (4.31)
EGDSLRYYYAN	GKNNRPS	SSRDSSMSEVF	2.57 2.54 4.08	3.06	0 of 9
EGDSLRYYYRI	GKNNRPS	SSRDSSGFQVW	ND ND ND	ND	1 of 9 (4.38)
EGDSLWYYYAN	GKNNRPS	SSRDCSGFDVF	3.40 3.41 2.86	3.23	3 of 9 (4.32)
EGDSERYTYAN	GKNNRPS	SSRDSSGFEVF	3.46 3.19 3.91	3.52	0 of 9
EGDSLRYYYAN	GKNFRPS	SQRDSSGFQVF	2.92 2.67 2.73	2.77	3 of 9 (3.43)
EGDSLRYYDAN	GKNNRPS	SSRDSWGFQTF	1.46 1.11 0.86	1.14	6 of 9 (4.05)
EVDSLRYYYAN	GKNLRPS	SSRPSSGFQVF	2.63 3.42 3.38	3.14	6 of 9 (3.83)

The last 7 entries again:

CDR-L1,CDR-L2,CDR-L3,"log10 Kd, replicates","mean, log10 nM",control signals
EGDSLRYYYAN,GKNNRPS,SSRDSSMSEVF,2.57 2.54 4.08,3.06,0 of 9
EGDSLRYYYRI,GKNNRPS,SSRDSSGFQVW,ND ND ND,ND,1 of 9 (4.38)
EGDSLWYYYAN,GKNNRPS,SSRDCSGFDVF,3.40 3.41 2.86,3.23,3 of 9 (4.32)
EGDSERYTYAN,GKNNRPS,SSRDSSGFEVF,3.46 3.19 3.91,3.52,0 of 9
EGDSLRYYYAN,GKNFRPS,SQRDSSGFQVF,2.92 2.67 2.73,2.77,3 of 9 (3.43)
EGDSLRYYDAN,GKNNRPS,SSRDSWGFQTF,1.46 1.11 0.86,1.14,6 of 9 (4.05)
EVDSLRYYYAN,GKNLRPS,SSRPSSGFQVF,2.63 3.42 3.38,3.14,6 of 9 (3.83)

Nonspecific signal, from three strains lacking the peptide, appeared in 28% of pairings of library AAYL52, centred on 3.91 (5% of these signals below 2.90); values are not corrected for it. Also given: how often the same scFv was detected with the empty control strains, with their mean in brackets.